Measured values as given in US20130337020A1, “Pharmaceutical Compositions” (Alpharma Pharmaceuticals LLC, priority 2006, published 2013).

Settings: in comparison to a 15 mg dose of hydrocodone

CN1CC[C@]23c4c5ccc(O)c4O[C@H]2C(=O)CC[C@H]3[C@H]1C5 [Hydromorphone]
Equianalgesic Doses of Opioids, Calculated Dose: 3.375 mg
